Drawing on ChEMBL document CHEMBL1123005, “1-Azacycloalkyl-1,4-benzodiazepin-2-ones with antianxiety-antidepressant actions” (J Med Chem, 1985), this text covers K2 for four compounds.

Amino acid sequences for entries named in this document (tags omitted). A change or cut given only in a name is not applied to a line headed by its entry.
UniProt O09028: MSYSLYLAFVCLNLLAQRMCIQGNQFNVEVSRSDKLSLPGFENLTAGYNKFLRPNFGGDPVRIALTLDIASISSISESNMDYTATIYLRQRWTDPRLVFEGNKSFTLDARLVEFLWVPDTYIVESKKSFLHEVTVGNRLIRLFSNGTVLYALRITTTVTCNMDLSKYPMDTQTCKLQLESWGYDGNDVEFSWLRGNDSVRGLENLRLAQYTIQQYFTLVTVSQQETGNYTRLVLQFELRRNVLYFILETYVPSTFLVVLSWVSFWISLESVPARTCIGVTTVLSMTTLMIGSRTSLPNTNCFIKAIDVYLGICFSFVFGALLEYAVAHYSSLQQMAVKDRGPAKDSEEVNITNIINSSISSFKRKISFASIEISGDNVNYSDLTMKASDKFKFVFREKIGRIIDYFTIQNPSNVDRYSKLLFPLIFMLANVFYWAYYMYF
UniProt P15431: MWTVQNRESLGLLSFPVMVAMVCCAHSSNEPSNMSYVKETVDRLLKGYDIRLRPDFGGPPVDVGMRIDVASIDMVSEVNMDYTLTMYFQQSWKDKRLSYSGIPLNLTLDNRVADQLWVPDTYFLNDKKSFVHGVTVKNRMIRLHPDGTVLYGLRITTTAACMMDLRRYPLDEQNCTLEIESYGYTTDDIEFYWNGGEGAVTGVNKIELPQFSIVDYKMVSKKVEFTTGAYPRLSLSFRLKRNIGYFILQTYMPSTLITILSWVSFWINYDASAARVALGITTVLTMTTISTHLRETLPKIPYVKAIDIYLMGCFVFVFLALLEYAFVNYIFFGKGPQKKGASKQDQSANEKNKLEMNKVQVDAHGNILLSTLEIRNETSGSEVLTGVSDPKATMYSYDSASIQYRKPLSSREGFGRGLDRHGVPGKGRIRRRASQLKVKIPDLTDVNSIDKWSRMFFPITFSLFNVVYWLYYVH
UniProt P18506: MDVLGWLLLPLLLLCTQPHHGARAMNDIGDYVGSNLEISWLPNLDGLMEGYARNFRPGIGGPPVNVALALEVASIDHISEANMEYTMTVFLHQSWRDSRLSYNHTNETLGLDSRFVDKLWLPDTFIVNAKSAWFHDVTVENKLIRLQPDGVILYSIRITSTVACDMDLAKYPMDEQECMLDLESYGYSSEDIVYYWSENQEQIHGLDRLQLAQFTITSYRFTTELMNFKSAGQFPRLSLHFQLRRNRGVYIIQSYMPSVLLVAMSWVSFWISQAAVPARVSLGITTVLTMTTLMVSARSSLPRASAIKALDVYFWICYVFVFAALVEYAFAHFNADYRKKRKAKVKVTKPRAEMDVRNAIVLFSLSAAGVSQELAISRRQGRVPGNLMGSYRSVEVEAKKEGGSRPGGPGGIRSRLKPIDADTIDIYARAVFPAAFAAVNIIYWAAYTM
UniProt P18508: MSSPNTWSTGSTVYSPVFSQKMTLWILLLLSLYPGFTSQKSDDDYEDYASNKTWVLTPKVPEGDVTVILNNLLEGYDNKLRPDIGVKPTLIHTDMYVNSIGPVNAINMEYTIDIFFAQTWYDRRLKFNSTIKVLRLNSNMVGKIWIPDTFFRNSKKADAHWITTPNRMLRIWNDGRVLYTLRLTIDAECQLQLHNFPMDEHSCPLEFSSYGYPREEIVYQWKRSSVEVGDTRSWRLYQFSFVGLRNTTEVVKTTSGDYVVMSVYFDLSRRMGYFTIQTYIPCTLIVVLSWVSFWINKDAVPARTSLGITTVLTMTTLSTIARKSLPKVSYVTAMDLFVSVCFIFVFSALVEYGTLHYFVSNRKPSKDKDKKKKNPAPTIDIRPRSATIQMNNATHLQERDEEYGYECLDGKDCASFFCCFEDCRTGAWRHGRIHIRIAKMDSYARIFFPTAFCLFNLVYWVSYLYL
UniProt P19969: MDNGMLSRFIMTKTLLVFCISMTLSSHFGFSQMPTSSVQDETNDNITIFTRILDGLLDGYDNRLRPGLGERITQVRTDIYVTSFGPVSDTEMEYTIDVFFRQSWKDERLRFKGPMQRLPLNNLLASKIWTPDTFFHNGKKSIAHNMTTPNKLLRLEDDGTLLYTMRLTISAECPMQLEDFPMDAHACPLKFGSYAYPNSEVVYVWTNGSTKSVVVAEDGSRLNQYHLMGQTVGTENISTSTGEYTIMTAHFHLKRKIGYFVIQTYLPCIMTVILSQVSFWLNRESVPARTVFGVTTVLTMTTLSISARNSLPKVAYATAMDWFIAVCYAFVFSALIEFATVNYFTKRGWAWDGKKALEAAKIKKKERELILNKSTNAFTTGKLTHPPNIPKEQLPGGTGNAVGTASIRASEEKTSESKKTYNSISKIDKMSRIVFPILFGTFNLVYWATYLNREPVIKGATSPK
UniProt P23574: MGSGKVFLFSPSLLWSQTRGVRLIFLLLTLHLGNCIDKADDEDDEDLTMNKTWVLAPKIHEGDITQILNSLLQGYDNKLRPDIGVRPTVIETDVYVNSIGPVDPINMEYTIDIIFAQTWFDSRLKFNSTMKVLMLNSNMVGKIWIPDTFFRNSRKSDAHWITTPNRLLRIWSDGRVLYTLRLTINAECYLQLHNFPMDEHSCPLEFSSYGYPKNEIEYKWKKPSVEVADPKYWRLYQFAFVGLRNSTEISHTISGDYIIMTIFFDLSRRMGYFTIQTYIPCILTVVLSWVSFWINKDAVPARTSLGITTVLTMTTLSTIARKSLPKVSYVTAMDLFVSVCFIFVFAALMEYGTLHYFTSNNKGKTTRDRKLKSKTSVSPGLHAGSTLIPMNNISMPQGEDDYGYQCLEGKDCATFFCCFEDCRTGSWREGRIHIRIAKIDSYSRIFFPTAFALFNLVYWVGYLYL
UniProt P23576: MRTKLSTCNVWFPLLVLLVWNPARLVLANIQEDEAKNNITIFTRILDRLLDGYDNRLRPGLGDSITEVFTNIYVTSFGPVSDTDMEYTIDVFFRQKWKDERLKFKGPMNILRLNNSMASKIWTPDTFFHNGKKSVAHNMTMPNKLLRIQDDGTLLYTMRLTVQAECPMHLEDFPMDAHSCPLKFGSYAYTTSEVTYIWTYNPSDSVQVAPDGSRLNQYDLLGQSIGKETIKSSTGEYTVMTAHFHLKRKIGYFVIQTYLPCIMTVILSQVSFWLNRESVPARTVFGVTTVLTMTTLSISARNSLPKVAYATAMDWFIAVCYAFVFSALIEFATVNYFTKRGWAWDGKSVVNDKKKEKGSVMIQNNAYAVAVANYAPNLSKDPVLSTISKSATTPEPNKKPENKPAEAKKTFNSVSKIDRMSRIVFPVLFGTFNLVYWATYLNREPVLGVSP
UniProt P28471: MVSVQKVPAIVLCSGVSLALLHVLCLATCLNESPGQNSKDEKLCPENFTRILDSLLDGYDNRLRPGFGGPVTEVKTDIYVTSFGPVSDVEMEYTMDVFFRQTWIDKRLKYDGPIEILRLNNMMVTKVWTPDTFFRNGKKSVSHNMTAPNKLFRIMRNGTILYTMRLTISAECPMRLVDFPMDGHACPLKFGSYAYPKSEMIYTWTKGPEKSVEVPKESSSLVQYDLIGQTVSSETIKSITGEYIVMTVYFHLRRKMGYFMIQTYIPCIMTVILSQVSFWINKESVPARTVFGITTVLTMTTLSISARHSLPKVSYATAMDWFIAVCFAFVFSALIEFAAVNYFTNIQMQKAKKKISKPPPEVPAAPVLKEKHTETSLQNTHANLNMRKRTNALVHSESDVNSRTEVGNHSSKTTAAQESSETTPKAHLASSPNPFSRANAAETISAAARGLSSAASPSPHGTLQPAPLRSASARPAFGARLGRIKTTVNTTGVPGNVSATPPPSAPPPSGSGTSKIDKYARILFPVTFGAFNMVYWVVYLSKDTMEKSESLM
UniProt P28473: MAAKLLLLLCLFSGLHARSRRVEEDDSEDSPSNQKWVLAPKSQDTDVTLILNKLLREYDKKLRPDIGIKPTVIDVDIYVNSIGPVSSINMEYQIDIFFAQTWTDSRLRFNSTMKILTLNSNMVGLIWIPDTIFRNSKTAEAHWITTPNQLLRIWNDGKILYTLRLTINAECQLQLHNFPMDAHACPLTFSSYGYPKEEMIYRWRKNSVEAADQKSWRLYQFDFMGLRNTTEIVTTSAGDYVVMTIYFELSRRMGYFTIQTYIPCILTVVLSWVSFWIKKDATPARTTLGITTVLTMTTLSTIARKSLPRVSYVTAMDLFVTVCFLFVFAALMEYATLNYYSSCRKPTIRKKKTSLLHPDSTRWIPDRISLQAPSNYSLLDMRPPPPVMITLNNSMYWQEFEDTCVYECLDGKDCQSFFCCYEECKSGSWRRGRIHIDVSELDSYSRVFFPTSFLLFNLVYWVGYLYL
UniProt P30191: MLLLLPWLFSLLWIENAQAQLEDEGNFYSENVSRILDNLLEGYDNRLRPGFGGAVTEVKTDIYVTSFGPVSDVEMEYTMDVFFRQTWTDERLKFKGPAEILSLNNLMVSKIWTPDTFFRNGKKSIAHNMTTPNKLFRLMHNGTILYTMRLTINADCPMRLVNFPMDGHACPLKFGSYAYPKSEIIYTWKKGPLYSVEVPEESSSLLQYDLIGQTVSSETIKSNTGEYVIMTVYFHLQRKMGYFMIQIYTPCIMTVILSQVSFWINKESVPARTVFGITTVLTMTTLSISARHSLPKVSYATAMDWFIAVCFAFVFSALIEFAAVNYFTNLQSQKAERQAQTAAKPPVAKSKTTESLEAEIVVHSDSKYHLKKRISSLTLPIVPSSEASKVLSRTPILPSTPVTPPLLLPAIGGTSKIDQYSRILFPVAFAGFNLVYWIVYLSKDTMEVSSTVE
UniProt P62813: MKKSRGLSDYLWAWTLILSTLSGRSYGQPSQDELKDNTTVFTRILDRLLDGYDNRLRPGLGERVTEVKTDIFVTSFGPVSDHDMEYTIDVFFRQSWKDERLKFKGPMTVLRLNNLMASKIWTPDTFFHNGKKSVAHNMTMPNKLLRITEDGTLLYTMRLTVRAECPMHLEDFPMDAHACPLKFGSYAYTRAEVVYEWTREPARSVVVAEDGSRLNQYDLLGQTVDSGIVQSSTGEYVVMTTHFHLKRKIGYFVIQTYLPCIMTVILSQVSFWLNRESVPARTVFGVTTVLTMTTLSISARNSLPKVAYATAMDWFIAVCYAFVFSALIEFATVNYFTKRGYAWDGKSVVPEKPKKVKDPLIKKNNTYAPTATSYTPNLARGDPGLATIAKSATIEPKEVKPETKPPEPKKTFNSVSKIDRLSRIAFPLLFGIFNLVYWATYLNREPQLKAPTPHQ
UniProt P63079: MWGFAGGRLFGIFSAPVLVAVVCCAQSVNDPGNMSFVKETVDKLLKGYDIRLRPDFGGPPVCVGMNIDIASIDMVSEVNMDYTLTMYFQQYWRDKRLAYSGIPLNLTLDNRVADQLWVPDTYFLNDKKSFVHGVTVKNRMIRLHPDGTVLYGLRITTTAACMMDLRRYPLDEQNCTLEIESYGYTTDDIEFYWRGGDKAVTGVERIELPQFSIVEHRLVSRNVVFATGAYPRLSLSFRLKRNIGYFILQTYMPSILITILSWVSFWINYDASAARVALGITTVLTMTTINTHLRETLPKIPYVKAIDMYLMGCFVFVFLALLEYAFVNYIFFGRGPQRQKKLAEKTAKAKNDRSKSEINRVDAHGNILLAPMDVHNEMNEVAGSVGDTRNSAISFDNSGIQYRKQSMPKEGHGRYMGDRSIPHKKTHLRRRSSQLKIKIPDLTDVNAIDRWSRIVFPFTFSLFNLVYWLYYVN
UniProt P63138: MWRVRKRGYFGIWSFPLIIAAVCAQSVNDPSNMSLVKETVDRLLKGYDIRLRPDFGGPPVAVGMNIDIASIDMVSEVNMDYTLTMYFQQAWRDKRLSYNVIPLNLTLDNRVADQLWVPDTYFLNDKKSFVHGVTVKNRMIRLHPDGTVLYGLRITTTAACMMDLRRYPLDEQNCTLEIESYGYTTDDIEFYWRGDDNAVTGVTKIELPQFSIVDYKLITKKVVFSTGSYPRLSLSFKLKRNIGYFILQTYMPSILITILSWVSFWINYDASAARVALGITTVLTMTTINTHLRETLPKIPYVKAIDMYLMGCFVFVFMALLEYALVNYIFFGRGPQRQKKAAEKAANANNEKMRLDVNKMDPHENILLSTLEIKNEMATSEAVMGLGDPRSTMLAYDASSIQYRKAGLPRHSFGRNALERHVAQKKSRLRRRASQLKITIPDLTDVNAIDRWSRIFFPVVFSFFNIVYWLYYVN
UniProt Q9ES14: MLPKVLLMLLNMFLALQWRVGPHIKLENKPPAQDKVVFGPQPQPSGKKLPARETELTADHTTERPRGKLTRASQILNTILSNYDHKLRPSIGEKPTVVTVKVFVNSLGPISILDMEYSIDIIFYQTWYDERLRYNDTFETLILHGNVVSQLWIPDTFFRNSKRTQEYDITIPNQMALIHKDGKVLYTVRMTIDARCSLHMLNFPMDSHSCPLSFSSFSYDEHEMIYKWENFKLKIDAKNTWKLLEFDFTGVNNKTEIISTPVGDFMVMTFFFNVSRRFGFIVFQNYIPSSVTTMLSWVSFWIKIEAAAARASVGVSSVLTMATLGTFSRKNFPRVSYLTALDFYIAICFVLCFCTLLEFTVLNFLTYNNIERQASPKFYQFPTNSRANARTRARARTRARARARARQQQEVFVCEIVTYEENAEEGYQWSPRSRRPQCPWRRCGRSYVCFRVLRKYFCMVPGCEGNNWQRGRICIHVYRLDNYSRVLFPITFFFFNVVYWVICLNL

Structures are written as SMILES.

For this assay, the target named is GABA-A receptor; anion channel (Rattus norvegicus) (UniProt O09028+P15431+P18506+P18508+P19969+P20236+P23574+P23576+P28471+P28473+P30191+P62813+P63079+P63138+Q91ZM7+Q9ES14). Description: Binding constant was determined by displacing potential to [3H]-diazepam binding in cerebral cortex homogenates of rat. It is filed as tissue-based. In a few lines: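 Wistar rat cerebral cortex homogenate incubated with compound and 2 nM [3H]diazepam at 0 °C for 60 min. Bound label trapped on glass filters and counted by scintillation. Ki = IC50/(1 + L/Kd).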

`CN1CCC(N2C(=O)CN=C(c3ccccc3)c3ccccc32)CC1` displayed a K2 of 2.3 µM.

In turn, `CN1CCC(N2C(=O)CN=C(c3ccccc3F)c3cc(F)ccc32)CC1` came in with a K2 of 0.094 µM.

In the case of `CN1CCC(N2C(=O)CN=C(c3ccccc3F)c3cc(Cl)ccc32)CC1`, the K2 was found to be 0.042 µM.

As for `CN1CCC(N2C(=O)CN=C(c3ccccc3)c3cc(Cl)ccc32)CC1`, the K2 turned out to be 0.49 µM.
